For orientation: IC50 means the point on the concentration scale where inhibition reaches its midpoint.

This test concerns the target T1, ATP-sensitive inward rectifier potassium channel 1 (Rattus norvegicus, UniProt P35560).
T1 sequence (P35560 whole entry): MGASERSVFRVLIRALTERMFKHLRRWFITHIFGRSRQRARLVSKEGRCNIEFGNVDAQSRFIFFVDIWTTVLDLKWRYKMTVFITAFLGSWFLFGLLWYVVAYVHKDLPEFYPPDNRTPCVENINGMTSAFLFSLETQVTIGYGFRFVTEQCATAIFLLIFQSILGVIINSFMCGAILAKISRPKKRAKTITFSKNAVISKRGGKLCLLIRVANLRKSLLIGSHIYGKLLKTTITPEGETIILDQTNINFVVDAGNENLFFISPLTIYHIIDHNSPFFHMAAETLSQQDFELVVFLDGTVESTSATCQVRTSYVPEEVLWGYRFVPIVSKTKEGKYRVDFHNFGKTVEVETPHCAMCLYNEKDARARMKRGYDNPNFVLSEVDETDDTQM
Briefly: Electrophysiology Assay: Block of Kir1.1 (ROMK1) currents was examined by whole cell voltage clamp (Hamill et. al. Pfluegers Archives 391:85-100 (1981)) using the IonWorks Quattro automated electrophysiology platform (Molecular Devices, Sunnyvale, Calif.). Chinese hamster ovary cells stably expressing Kir1.1 channels were maintained in T-75 flasks in cell culture media in a humidified 10% CO2 incubator at 37 C. Prior to an experiment, Kir1.1 expression was induced by overnight incubation with 1 mM sodium butyrate. On the day of the experiment, cells were dissociated with 2.5 mL of Versene (Invitrogen 15040-066) for approximately 6 min at 37 C. and suspended in 10 mL of bath solution containing (in mM): 150 NaCl, 10 KCl, 2.7 CaCl2, 0.5 MgCl2, 5 HEPES, pH 7.4. After centrifugation, the cell pellet was resuspended in approximately 4.0 mL of bath solution and placed in the IonWorks instrument. The intracellular solution consisted of (in mM): 80 K gluconate, 40 KCl, 20 KF, 3.2 MgCl2, 3 EGTA, 5 Hepes, pH 7.4. The format is cell-based. In general terms: Patch clamp records ionic current or voltage across a cell membrane.
`C[C@H]1Cc2cc([C@@H]3CN4CCN(C(=O)C5CCc6nc(-n7cnnn7)ccc65)C[C@H]4CO3)ccc2C(=O)O1` (stereo partly specified): it took 200 nM to reach half-maximal inhibition (IC50).

With `C[C@H]1Cc2cc([C@H]3CN4CCN(C(=O)C5CCc6nc(-n7cnnn7)ccc65)C[C@@H]4CO3)ccc2C(=O)O1` (stereo partly specified), the IC50 was 120 nM. On to `C[C@H]1Cc2c(ccc([C@@H]3CN4CCN(C(=O)C5CCc6nc(-n7cnnn7)ccc65)C[C@@H]4CO3)c2F)C(=O)O1` (stereo partly specified), for which 100 nM corresponded to half-maximal inhibition (IC50). For the compound `C[C@H]1Cc2c(ccc([C@@H]3CN4CCN(C(=O)C5CCc6nc(-n7cnnn7)ccc65)C[C@H]4CO3)c2F)C(=O)O1` (stereo partly specified), the IC50 was found to be 100 nM.

`C[C@@H]1Cc2cc([C@H]3CN4CCN(C(=O)C5CCc6nc(-n7cnnn7)ccc65)C[C@H]4CO3)ccc2C(=O)O1` (single isomer, unassigned) displayed an IC50 of 190 nM. For the compound `O=C1OCCc2cc([C@@H]3CN4CCN(C(=O)C5CCc6nc(-n7cnnn7)ccc65)C[C@H]4CO3)ccc21` (single isomer, unassigned), the IC50 was 100 nM.

The values are drawn from ChEMBL document CHEMBL3638717, “Inhibitors of the renal outer medullary potassium channel” (2015).
